Results from publication PMC1930153, “Engineering the Melanocortin-4 Receptor to Control Constitutive and Ligand-Mediated Gs Signaling In Vivo” (PLoS ONE, 2007).

Chains of the proteins cited; added tags and fusions are not shown.
UniProt P32245, whole entry: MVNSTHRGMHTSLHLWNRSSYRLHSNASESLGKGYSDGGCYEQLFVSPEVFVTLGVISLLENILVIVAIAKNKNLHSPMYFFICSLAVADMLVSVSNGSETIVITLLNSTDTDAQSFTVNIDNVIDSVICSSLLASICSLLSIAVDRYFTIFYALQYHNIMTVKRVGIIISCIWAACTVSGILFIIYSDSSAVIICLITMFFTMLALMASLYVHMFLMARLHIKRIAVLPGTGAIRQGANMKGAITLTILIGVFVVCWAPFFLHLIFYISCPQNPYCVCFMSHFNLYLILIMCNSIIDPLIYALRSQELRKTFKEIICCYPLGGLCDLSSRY
UniProt P32245, whole entry L106P: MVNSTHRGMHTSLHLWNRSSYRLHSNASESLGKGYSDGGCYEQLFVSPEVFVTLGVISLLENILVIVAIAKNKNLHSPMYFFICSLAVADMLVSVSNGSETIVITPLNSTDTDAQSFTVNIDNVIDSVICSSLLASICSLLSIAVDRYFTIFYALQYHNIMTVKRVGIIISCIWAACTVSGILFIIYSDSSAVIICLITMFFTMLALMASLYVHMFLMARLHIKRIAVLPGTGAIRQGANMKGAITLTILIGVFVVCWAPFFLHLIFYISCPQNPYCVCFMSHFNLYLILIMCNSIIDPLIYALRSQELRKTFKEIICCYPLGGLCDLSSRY
UniProt P32245, whole entry D122A: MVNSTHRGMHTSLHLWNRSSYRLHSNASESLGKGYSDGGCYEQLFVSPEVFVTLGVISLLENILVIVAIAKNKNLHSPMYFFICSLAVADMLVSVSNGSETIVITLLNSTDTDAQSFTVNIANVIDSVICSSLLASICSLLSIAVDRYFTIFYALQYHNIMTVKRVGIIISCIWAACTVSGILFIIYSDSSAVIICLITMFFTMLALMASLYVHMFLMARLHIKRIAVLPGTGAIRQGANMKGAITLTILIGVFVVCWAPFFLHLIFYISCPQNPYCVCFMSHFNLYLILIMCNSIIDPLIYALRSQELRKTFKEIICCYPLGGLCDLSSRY

Key:
Type in all cases: cell-based
wild-type MC4R = molecular target: T1, wild-type MC4R (Homo sapiens, UniProt P32245); assay: cAMP assay, wild-type MC4R in transiently transfected HEK293 cells; settings: WT MC4R, increasing concentrations
T1 construct: prolactin signal peptide (N); expressed in transfected cells; host or cells: HEK293
Protocol: (§1) HEK293 cells were maintained in Dulbecco's modified Eagle's medium supplemented with 10% fetal bovine serum containing L-glutamine. […] For the internalization assays, stable cell lines expressing wild-type or RASSL-MC4R were generated by G418-mediated selection (10 µg/ml) of clones expressing the neomycin-resistance gene cotransfected with MC4R. Stable cell lines were maintained by selection with 5 µg/ml G418.
(§2) cAMP production was measured with an ultra sensitive enzymatic cAMP assay (CatchPoint, Molecular Devices, Sunnyvale, CA). Transiently transfected cells were plated at 1×10^5/well into 96-well plates coated with poly-D-lysine (Sigma). Forty-eight h after transfection, cells were rinsed in Krebs-Ringer bicarbonate buffer containing glucose (Sigma) and incubated in pre-stimulation buffer containing 0.75 mM 3-isobutyl-1-methylxanthine in the same buffer for 10 min at room temperature. […] The cells were lysed, and cAMP accumulation was measured according to the CatchPoint protocol. cAMP generated under the different experimental conditions was interpolated from a cAMP standard curve for each experiment. Four replicates were used for each condition, and all experiments were repeated at least three times. Emax and EC50 values were calculated with SoftMax Pro. cAMP measurements were performed on transiently transfected cells.

L106P-MC4R (Rm1) = molecular target: T2, L106P-MC4R (Rm1) (Homo sapiens, UniProt P32245, L106P); assay: cAMP assay, L106P MC4R (Rm1) in HEK293 cells; settings: Rm1, increasing concentrations
T2 construct: prolactin signal peptide (N); green fluorescent protein (N); expressed in transfected cells; host or cells: HEK293
Protocol: as §1, §2

D122A-MC4R (Rm2) = molecular target: T3, D122A-MC4R (Rm2) (Homo sapiens, UniProt P32245, D122A); assay: cAMP assay, D122A MC4R (Rm2) in HEK293 cells; settings: Rm2, increasing concentrations
T3 construct: prolactin signal peptide (N); green fluorescent protein (N); expressed in transfected cells; host or cells: HEK293
Protocol: as §1, §2

## γ-MSH
wild-type MC4R
  Activation (cAMP release) in words: significantly weaker potency
L106P-MC4R (Rm1)
  Activation (cAMP release) in words: did not activate
D122A-MC4R (Rm2)
  Activation (cAMP release) in words: did not activate
